Reference: ChEMBL document CHEMBL5528025, “Design, synthesis and biological evaluation of carbamate derivatives incorporating multifunctional carrier scaffolds as pseudo-irreversible cholinesterase inhibitors for the treatment of Alzheimer's disease” (Eur J Med Chem, 2024)

Chains of the proteins cited; added tags and fusions are not shown.
UniProt P06276, whole entry: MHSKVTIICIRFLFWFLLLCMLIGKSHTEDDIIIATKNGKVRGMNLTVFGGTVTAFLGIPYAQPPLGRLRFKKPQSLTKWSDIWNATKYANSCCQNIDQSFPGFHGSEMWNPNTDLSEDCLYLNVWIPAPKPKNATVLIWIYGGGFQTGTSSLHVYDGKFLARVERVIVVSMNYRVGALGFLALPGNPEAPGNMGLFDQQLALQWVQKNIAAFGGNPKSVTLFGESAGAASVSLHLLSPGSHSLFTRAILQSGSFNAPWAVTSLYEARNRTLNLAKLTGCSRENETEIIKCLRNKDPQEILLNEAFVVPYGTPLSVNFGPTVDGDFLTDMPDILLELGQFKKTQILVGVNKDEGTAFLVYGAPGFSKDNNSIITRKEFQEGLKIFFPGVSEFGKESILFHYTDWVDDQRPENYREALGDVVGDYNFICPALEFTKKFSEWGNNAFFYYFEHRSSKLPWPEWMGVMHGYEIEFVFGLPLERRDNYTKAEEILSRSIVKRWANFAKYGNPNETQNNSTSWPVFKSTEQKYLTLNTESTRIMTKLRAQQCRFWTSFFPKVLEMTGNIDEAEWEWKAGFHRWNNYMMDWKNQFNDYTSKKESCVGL

Molecular target: Cholinesterase (Homo sapiens, UniProt P06276)

SMILES: CCN(C)C(=O)Oc1cccc([C@H](C)N(C)C)c1 [RIVASTIGMINE]
- IC50: 105 nM
